Experimental data: patent US12653798B2, “Fixed combination medicine for the control and management of neuropathic pain” (LABORATORIOS SILANES S.A. DE C.V., priority 2020, dated 2026)

Assay: Dissolution profile tests
Type: physicochemical

For thiamine mononitrate, the “% dissolved” value (t 0 min) was 0.00%, the “% dissolved” value (t 5 min) was 91.75% and the “% dissolved” value (t 10 min) was 95.88%. For the same substance, the “% dissolved” value (t 15 min) was 97.08%, the “% dissolved” value (t 30 min) was 97.56% and the “% dissolved” value (t 45 min) was 97.84%. The “% dissolved” value (t 60 min) was 98.54%.
